Assay results taken from ChEMBL document CHEMBL1153300, “Identification and SAR of novel diaminopyrimidines. Part 2: The discovery of RO-51, a potent and selective, dual P2X(3)/P2X(2/3) antagonist for the treatment of pain” (Bioorg Med Chem Lett, 2009).

Molecular target: T1, P2X purinoceptor 3 (Rattus norvegicus, UniProt P49654)
T1 sequence (P49654 whole entry): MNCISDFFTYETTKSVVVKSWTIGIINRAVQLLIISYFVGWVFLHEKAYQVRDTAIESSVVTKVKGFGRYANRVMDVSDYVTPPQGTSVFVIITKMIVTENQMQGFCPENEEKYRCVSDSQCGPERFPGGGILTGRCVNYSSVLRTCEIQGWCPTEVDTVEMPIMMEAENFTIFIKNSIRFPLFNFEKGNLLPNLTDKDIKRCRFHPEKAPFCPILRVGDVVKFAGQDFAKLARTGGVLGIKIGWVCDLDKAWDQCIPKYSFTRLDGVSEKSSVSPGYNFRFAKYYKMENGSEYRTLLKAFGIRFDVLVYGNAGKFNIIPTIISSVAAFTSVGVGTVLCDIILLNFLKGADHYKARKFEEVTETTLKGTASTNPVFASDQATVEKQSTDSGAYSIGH
Assay: Antagonist activity at rat P2X3 receptor expressed in CHO cells by FLIPR
Type: functional, cell-based

IC50 | SMILES | pIC50 (cho)
– | COc1cc(C(C)C)c(Oc2cnc(NCCO)nc2N)cc1I | 8
2 nM | COc1cc(C(C)C)c(Oc2cnc(NC(CO)CO)nc2N)cc1I | –
100 nM | COc1cc(C(C)C)c(Oc2cnc(NC(C)(C)CO)nc2N)cc1I | –
